pIC50: −log10 of the molar value.
What was measured:
[1] = biological target: human PDE4D catalytic domain (UniProt no. Q08499 [S380-L740]) (Homo sapiens (Human), UniProt Q08499); test: PDE4 assay (TR-FRET, cAMP hydrolysis); conditions: read-out: PDE4 IC50 range
Protocol: The human PDE4D catalytic domain (UniProt no. Q08499 [S380-L740]) was incubated with a mixture of non-labelled cAMP (cyclic adenosine monophosphate) and fluorescein amidite (FAM) conjugated cAMP and titrated test or reference compound.
Following brief incubation the enzymatic reaction was stopped by addition of binding buffer containing nanoparticles with immobilized trivalent metal ions capable of binding 1) AMP phospho groups and 2) terbium (Tb) donor fluorophores. Subsequent excitation of the Tb donor triggered time-resolved FRET to adjacent FAM acceptor molecules resulting in light emission. In the presence of a PDE4 inhibitor, AMP generation was reduced resulting in a lower fluorescence signal. The cAMP phosphodiester is not bound by the detection system.
Results were expressed as IC50 values (nM) calculated from inhibition curves where the TR-FRET signal was normalized to Tb fluorescence intensity and the negative (DMSO vehicle) and positive (10 microM a PDE4 inhibitor reference compound) controls.

Sequences of proteins named here, by UniProt entry; tags and fusion partners are left off. Residues count along the entry.
UniProt Q08499, 380-740 limits assumed: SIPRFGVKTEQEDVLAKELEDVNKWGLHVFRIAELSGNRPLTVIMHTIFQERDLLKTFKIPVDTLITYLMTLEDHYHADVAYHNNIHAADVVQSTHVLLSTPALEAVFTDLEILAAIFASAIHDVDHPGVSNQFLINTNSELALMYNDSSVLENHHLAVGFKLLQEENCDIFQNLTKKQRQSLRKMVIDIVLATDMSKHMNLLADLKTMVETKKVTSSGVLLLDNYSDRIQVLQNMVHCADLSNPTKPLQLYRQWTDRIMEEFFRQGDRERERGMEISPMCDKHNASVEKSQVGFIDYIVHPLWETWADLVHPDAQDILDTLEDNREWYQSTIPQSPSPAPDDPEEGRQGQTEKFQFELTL

[2] = tested on: Human peripheral blood mononuclear cells (PBMC); test: TNF-α release from LPS-stimulated PBMC; conditions: read-out: TNF-α IC50 range, Lipopolysaccharide 1 microg/ml, 18 hours, AlphaLISA
Protocol: Human peripheral blood mononuclear cells (PBMC) were isolated from fresh buffy coats by density centrifugation using lymphoprep tubes (Medinor). Frozen PBMC's were washed in serum free assay buffer (RPMI1640 with 25 mM HEPES, 1% pen/strep, […] L glutamine, 0.5% human serum albumin) and living cells counted. Lipopolysaccharide (1 microg/ml; SIGMA) was added to the cells which were then transferred to 384 well tissue culture plates ([…]) containing titrated test compounds. The cells were incubated for 18 hours at 37° C. in serum free assay buffer and the level of TNFalpha in the supernatant was quantitated by AlphaLISA (PerkinElmer) by measuring fluorescence intensity at 615 nm.
Results were expressed as IC50 values calculated from inhibition curves using as controls the secretion in LPS stimulated wells and the secretion in cells incubated with 10 microM of a PDE4 inhibitor reference compound.

Q: CC(=O)N1CC[C@H](Nc2nc(N3CC(OC(=O)c4cnsc4)C3)nc3c2[S+]([O-])CC3)C1 (some centres unmarked) was tested. Which pIC50 [1] did it give?
A: > 7.00

Q: What about the pIC50 [2] of the same compound?
A: > 7.00
